From ChEMBL document CHEMBL1136599, “Design, synthesis, and structure-activity relationships of substituted piperazinone-based transition state factor Xa inhibitors” (Bioorg Med Chem Lett, 2003)

Protein sequences, listed by entry. Tags and fused reporters are not part of them. Residues count along the entry.
UniProt P00742, 41-179 limits assumed: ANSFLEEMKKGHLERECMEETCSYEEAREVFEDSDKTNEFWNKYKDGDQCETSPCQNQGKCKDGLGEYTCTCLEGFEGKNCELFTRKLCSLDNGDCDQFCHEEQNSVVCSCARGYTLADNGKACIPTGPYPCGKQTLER
UniProt P00742, 235-488 limits assumed: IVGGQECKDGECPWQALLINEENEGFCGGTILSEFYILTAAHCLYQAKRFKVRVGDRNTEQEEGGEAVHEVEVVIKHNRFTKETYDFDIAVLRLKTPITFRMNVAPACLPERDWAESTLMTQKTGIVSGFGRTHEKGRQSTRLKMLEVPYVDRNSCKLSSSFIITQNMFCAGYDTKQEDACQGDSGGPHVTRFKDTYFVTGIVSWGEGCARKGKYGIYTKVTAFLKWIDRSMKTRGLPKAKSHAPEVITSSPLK

Target: Coagulation factor X (Homo sapiens, UniProt P00742)
Assay: In vitro inhibitory activity against factor Xa

## N=C(N)NCCC[C@H](NC(=O)CN1CCN[C@H](Cc2ccccc2)C1=O)C(=O)c1nccs1
  IC50: 5 µM
